scFv variants of Ab-14 (heavy chain) against a SARS-CoV-2 spike peptide

The measurements come from Li et al. 2023 (doi:10.1038/s41467-023-39022-2) through the FLAb antibody collection.

Target peptide (SARS-CoV-2 spike, HR2 region): PDVDLGDISGINAS

Each scFv is VH, a 15-residue (Gly4Ser)3 linker, VL, as in the parent Ab-14, and differs from it in the CDRs of the heavy chain only.
VH: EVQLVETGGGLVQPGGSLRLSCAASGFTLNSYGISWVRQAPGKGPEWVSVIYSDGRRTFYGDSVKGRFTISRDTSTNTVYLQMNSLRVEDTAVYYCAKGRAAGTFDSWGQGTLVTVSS
VL: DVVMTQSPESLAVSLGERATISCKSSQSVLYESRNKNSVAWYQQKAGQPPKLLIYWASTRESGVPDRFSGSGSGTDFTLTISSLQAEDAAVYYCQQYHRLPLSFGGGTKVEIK

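The starting antibody came from a phage panning campaign against this peptide. Designed CDR sequences, proposed from the first random library and measured here. Their group label is 14H_En_Gibbs (En: ensemble of fine-tuned language models; Gibbs: Gibbs sampling). AlphaSeq pools MATa yeast showing the antibodies with MATalpha yeast showing the peptide. After mating in shaken culture at 30 °C for 16 h, diploids were selected and their barcode pairs sequenced. A regression on co-assayed BCL2-family reference pairs converts the normalised counts of each replicate to an apparent Kd. Each pool was mated in six replicate cultures.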

Each variant is given by its three heavy chain CDRs, as the data file delimits them; those of the parent are GFTLNSYGIS, VIYSDGRRTFYGDSVK, GRAAGTFDS. Numbers give log10(Kd / nM), so 0 is 1 nM and 3 is 1 µM. Smaller is tighter. "n.d." means that the variant was in the library but no mating with the target was seen in that replicate; the authors take this as a sign of poor binding, and no number exists. Values of this round are not directly comparable with the first-round values of the same sequences. Nonspecific signal, from three strains lacking the peptide, appeared in 1% of pairings of all heavy chain designs, centred on 2.08 (5% of these signals below 0.84); values are not corrected for it. Also given: how often the same scFv was detected with the empty control strains, with their mean in brackets. The authors' rule: three or more of the six replicates give a measured affinity, fewer mean a poor binder. The parent sequence was in this pool as ten entries: three were never detected, three once, and four in most replicates, with averages from 0.34 to 2.37.

| CDR-H1 | CDR-H2 | CDR-H3 | log10 Kd (nM) by replicate | empty controls |
|---|---|---|---|---|
| GFQLDEVGIS | VIYADGMRTAYADSFK | GVVSTIIGI | n.d. n.d. n.d. n.d. n.d. n.d. | 0 of 18 |
| GFKLDEYGIS | VIYADGHRVAYSNQVK | GDNMGNMVE | n.d. n.d. n.d. n.d. n.d. n.d. | 0 of 18 |
| GEDLSEYGIS | VIYADGERRSYANSVK | GGVSGNFSD | n.d. n.d. n.d. n.d. n.d. n.d. | 0 of 18 |
| GFDIQDYGIS | VIYADGLRTSVSTNFK | GIIAGTFTS | 0.14 0.25 2.13 -0.54 0.84 0.90 | 0 of 18 |
| GFDLDEYGIS | VIYADGQRVSYAQNVK | GLVGKLGVV | n.d. n.d. n.d. n.d. n.d. n.d. | 0 of 18 |
| GFNLSEYGIS | VIYADGMRSNYANSVK | GHHGNFFID | n.d. n.d. n.d. 1.39 n.d. n.d. | 0 of 18 |
| GFGLMDYGIS | VIYADGKRRSYANSVK | GKHAGTFDF | 0.03 0.26 0.23 0.06 0.43 0.92 | 0 of 18 |
| GFSLNEYGIS | VIYADGMRTEYAQNFK | GYNSSDLTV | n.d. n.d. n.d. n.d. n.d. 1.72 | 0 of 18 |
| GFELQEYGIS | VIYADGARTAYSDNVK | GDAVGIFHV | n.d. n.d. n.d. n.d. n.d. n.d. | 0 of 18 |
| GFNLDEYGIS | VIYADGKRSHYTDKVK | GTVGDFMMV | n.d. n.d. n.d. n.d. n.d. n.d. | 0 of 18 |
| GFVFDEYGIS | VIYADGKRQFYQDKVK | GENTGNFDT | n.d. n.d. n.d. n.d. n.d. n.d. | 0 of 18 |
| GFDLGEYGIS | VIYADGSRVAYAQKVK | GKNDAISSV | n.d. n.d. n.d. n.d. n.d. n.d. | 0 of 18 |
| GFDIEEYGIS | VIYADGIRQAYKDKVK | GWDVGRFSV | 3.89 n.d. n.d. n.d. 2.39 n.d. | 2 of 18 (1.88) |
| GFDINEYGIS | VMYADGSRSVYQDNVK | GFQGGTLDM | n.d. n.d. n.d. 2.04 n.d. n.d. | 1 of 18 (2.42) |
| GFNLNEFGIS | VIYADGHRQAYVSNVK | GHLGGHFSM | n.d. n.d. n.d. n.d. n.d. n.d. | 0 of 18 |
| GFDLEEYGIS | VIYADGHRSKYANSVK | GGQVDFAIT | n.d. n.d. n.d. n.d. n.d. n.d. | 0 of 18 |
| GFQINEYGIS | VIYADGMRTGYADDVK | GMKDGNIFD | n.d. n.d. n.d. n.d. n.d. n.d. | 0 of 18 |
| GFSFDEYGIS | VIYADGKRTFYANTVK | GNKDMAFDI | n.d. n.d. n.d. n.d. n.d. n.d. | 1 of 18 (2.42) |
| GFDINEYGVS | VIYADGMRTAYTDSVK | GEGAWIALI | n.d. n.d. n.d. n.d. n.d. n.d. | 0 of 18 |
| GFNLDEFGIS | VIYADGQRTAYLDSFK | GENVNAVDT | n.d. n.d. n.d. n.d. n.d. n.d. | 0 of 18 |
| GFDLDEYGIS | VIYADGARKAVQNQFK | GGQAGTFVN | n.d. n.d. n.d. 2.22 n.d. n.d. | 0 of 18 |
| GFDIEEYGIS | VIYADGVRAMYKSNFK | GKIAGTYLT | n.d. n.d. n.d. n.d. n.d. n.d. | 1 of 18 (1.98) |
| GFTLDEYGIS | VIYADGMRTQYADQVK | GNLVATVMT | n.d. n.d. n.d. n.d. n.d. n.d. | 0 of 18 |
| GFSLDEYGIS | VIYADGARAFYTNKVK | GVEVGDLIT | n.d. n.d. n.d. n.d. n.d. n.d. | 0 of 18 |
| GFDLNEYGIS | VIYADGHRSKYQNSVK | GGQADFALL | n.d. n.d. n.d. n.d. n.d. n.d. | 1 of 18 (2.28) |
| GFSLDEYGIS | VIYADGQRKSYTDNVK | GYQGSRVSL | n.d. n.d. n.d. n.d. n.d. n.d. | 0 of 18 |
| GFPLDEYGIS | VIYADGERTHYSNSVK | GTIGGTFFQ | 1.91 1.97 n.d. 2.26 n.d. n.d. | 0 of 18 |
| FFKLEDFGIS | VIYADGRRTAYVDDFK | GEIAGTFDV | n.d. n.d. n.d. -0.53 n.d. n.d. | 0 of 18 |
| GFNIDEYGIS | VIYADGARTAYADKVK | GFNWNISVN | n.d. n.d. n.d. n.d. n.d. n.d. | 0 of 18 |
| GMDLNEYGIS | VIYADGQRRAYAANFK | GVNIDGFDA | n.d. n.d. n.d. n.d. n.d. n.d. | 0 of 18 |
| GADLNEYGIS | VIYADGSRVEYENSFK | GDVAGTFDS | 2.70 n.d. 2.29 2.79 1.87 2.23 | 2 of 18 (2.92) |
| GFDLQEQGIS | VIYADGKRTAYAQNVK | GYIVGDQFD | 2.56 n.d. n.d. n.d. n.d. n.d. | 2 of 18 (2.43) |
| GFTIDEYGIS | VIYADGQRVAYDEKFK | GMLAGTFDQ | -0.23 0.21 0.30 -0.55 -0.32 1.27 | 0 of 18 |
| GFDLNEYGIS | VIYADGSRTAYSKNFK | GEDGIVLLF | n.d. n.d. n.d. n.d. n.d. n.d. | 0 of 18 |
| GFNLDEYGIS | VIYADGRRVAYANNVK | GKNGAFFSN | 2.49 n.d. 2.66 n.d. n.d. n.d. | 0 of 18 |
| GDKLEDYGIS | VIYADGRRSAYVDAVK | GEYAGYFNV | n.d. n.d. n.d. n.d. n.d. n.d. | 0 of 18 |
| GFDIQEYGIS | VIYADGMRVAYTNSVK | GTQGISNIE | n.d. n.d. n.d. n.d. 2.75 n.d. | 0 of 18 |
| GESLLEYGIS | VIYADGSRVAYTNAVK | GHHAGAFDV | n.d. n.d. n.d. n.d. n.d. n.d. | 0 of 18 |
| GFDLESYGIS | VIYADGMRTSYTNNVK | GQNVMISTG | n.d. n.d. n.d. n.d. n.d. n.d. | 0 of 18 |
| GRDLDEYGIS | VIYADGRRQMYAVSFK | GEIGGTFLM | n.d. n.d. n.d. n.d. n.d. n.d. | 0 of 18 |
| GFDLNEYGIS | VIYADGRRVEYNDKVK | GMLTGTFDQ | n.d. n.d. n.d. n.d. n.d. n.d. | 0 of 18 |
| GFELNEYGIS | VIYADGHRSFFTDTVK | GQQAGIFNV | n.d. n.d. n.d. n.d. n.d. n.d. | 0 of 18 |
| GFNLDEYGIS | VIYADGRRTAYADSVK | NSNMSGMVT | n.d. n.d. 1.93 n.d. n.d. n.d. | 2 of 18 (2.76) |

The first 5 variants above that were never detected:

| CDR-H1 | CDR-H2 | CDR-H3 | log10 Kd (nM) by replicate | empty controls |
|---|---|---|---|---|
| GFQLDEVGIS | VIYADGMRTAYADSFK | GVVSTIIGI | n.d. n.d. n.d. n.d. n.d. n.d. | 0 of 18 |
| GFKLDEYGIS | VIYADGHRVAYSNQVK | GDNMGNMVE | n.d. n.d. n.d. n.d. n.d. n.d. | 0 of 18 |
| GEDLSEYGIS | VIYADGERRSYANSVK | GGVSGNFSD | n.d. n.d. n.d. n.d. n.d. n.d. | 0 of 18 |
| GFDLDEYGIS | VIYADGQRVSYAQNVK | GLVGKLGVV | n.d. n.d. n.d. n.d. n.d. n.d. | 0 of 18 |
| GFELQEYGIS | VIYADGARTAYSDNVK | GDAVGIFHV | n.d. n.d. n.d. n.d. n.d. n.d. | 0 of 18 |